PubChem BioAssay (NCI)
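Method: 48-hour compound exposure of cells in 96-well plates, five concentrations, linear interpolation of endpoints. TGI: total growth inhibition.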

What was measured:
Assay in all cases: NCI-60 cell line screen, 48 h
SK-MEL-2 melanoma = system: SK-MEL-2 melanoma
ACHN renal = system: ACHN renal
HL-60(TB) leukemia = system: HL-60(TB) leukemia
MALME-3M melanoma = system: MALME-3M melanoma
SF-295 CNS = system: SF-295 CNS
HCT-116 colon = system: HCT-116 colon
SN12C renal = system: SN12C renal
SR leukemia = system: SR leukemia
SK-OV-3 ovarian = system: SK-OV-3 ovarian
UACC-62 melanoma = system: UACC-62 melanoma
LXFL 529 NSCLC = system: LXFL 529 NSCLC
K-562 leukemia = system: K-562 leukemia
DMS 273 small cell lung = system: DMS 273 small cell lung
SW-620 colon = system: SW-620 colon
NCI-H322M lung = system: NCI-H322M lung
SNB-19 CNS = system: SNB-19 CNS
SF-539 CNS = system: SF-539 CNS
786-0 renal = system: 786-0 renal
HOP-92 NSCLC = system: HOP-92 NSCLC
HT29 colon = system: HT29 colon
NCI-H226 lung = system: NCI-H226 lung
A549 NSCLC = system: A549 NSCLC
HOP-62 NSCLC = system: HOP-62 NSCLC
RXF-631 renal = system: RXF-631 renal
CCRF-CEM leukemia = system: CCRF-CEM leukemia
KM12 colon = system: KM12 colon
OVCAR-8 ovarian = system: OVCAR-8 ovarian
OVCAR-3 ovarian = system: OVCAR-3 ovarian
LOX IMVI melanoma = system: LOX IMVI melanoma
U251 CNS = system: U251 CNS
NCI-H23 lung = system: NCI-H23 lung
NCI-H522 lung = system: NCI-H522 lung
UO-31 renal = system: UO-31 renal
SK-MEL-28 melanoma = system: SK-MEL-28 melanoma
SNB-75 CNS = system: SNB-75 CNS
MOLT-4 leukemia = system: MOLT-4 leukemia
IGROV1 ovarian = system: IGROV1 ovarian
M14 melanoma = system: M14 melanoma
NCI-H460 lung = system: NCI-H460 lung
TK-10 renal = system: TK-10 renal
SF-268 CNS = system: SF-268 CNS
DLD-1 colon = system: DLD-1 colon
XF 498 CNS = system: XF 498 CNS
UACC-257 melanoma = system: UACC-257 melanoma
RXF 393 renal = system: RXF 393 renal
SNB-78 CNS = system: SNB-78 CNS
A498 renal = system: A498 renal
OVCAR-5 ovarian = system: OVCAR-5 ovarian
OVCAR-4 ovarian = system: OVCAR-4 ovarian
RPMI-8226 leukemia = system: RPMI-8226 leukemia
HCC-2998 colon = system: HCC-2998 colon
CAKI-1 renal = system: CAKI-1 renal
M19-MEL melanoma = system: M19-MEL melanoma
SK-MEL-5 melanoma = system: SK-MEL-5 melanoma

Compound: COc1ccc2c(c1Oc1ccccc1)C13CCN(C)C(C2)C12C=CC(C[C@H]2C(C)(C)O)C3 (some centres undefined)
- TGI (SK-MEL-2 melanoma): 31.7 µM
- TGI (ACHN renal): 27.7 µM
- TGI (HL-60(TB) leukemia): 22.7 µM
- TGI (MALME-3M melanoma): 32.7 µM
- TGI (SF-295 CNS): 28.4 µM
- TGI (HCT-116 colon): 29.8 µM
- TGI (SN12C renal): 28.7 µM
- TGI (SR leukemia): 22.7 µM
- TGI (SK-OV-3 ovarian): 27 µM
- TGI (UACC-62 melanoma): 28.6 µM
- TGI (LXFL 529 NSCLC): 26.4 µM
- TGI (K-562 leukemia): 19.9 µM
- TGI (DMS 273 small cell lung): 35.5 µM
- TGI (SW-620 colon): 28.4 µM
- TGI (NCI-H322M lung): 27.6 µM
- TGI (SNB-19 CNS): 26.5 µM
- TGI (SF-539 CNS): 27.5 µM
- TGI (786-0 renal): 28.9 µM
- TGI (HOP-92 NSCLC): 15.3 µM
- TGI (HT29 colon): 13.8 µM
- TGI (NCI-H226 lung): 35.5 µM
- TGI (A549 NSCLC): 31.7 µM
- TGI (HOP-62 NSCLC): 31.4 µM
- TGI (RXF-631 renal): 34.4 µM
- TGI (CCRF-CEM leukemia): 24 µM
- TGI (KM12 colon): 30.2 µM
- TGI (OVCAR-8 ovarian): 29.6 µM
- TGI (OVCAR-3 ovarian): 27.8 µM
- TGI (LOX IMVI melanoma): 19.3 µM
- TGI (U251 CNS): 24.2 µM
- TGI (NCI-H23 lung): 32.4 µM
- TGI (NCI-H522 lung): 31.5 µM
- TGI (UO-31 renal): 15.2 µM
- TGI (SK-MEL-28 melanoma): 30.6 µM
- TGI (SNB-75 CNS): 19.6 µM
- TGI (MOLT-4 leukemia): 18.3 µM
- TGI (IGROV1 ovarian): 32.1 µM
- TGI (M14 melanoma): 29.7 µM
- TGI (NCI-H460 lung): 25.5 µM
- TGI (TK-10 renal): 28 µM
- TGI (SF-268 CNS): 25.8 µM
- TGI (DLD-1 colon): 32.2 µM
- TGI (XF 498 CNS): 22.3 µM
- TGI (UACC-257 melanoma): 31.1 µM
- TGI (RXF 393 renal): 23 µM
- TGI (SNB-78 CNS): 28.4 µM
- TGI (A498 renal): 28.6 µM
- TGI (OVCAR-5 ovarian): 31.7 µM
- TGI (OVCAR-4 ovarian): 28.8 µM
- TGI (RPMI-8226 leukemia): 24.7 µM
- TGI (HCC-2998 colon): 8.65 µM
- TGI (CAKI-1 renal): 22.3 µM
- TGI (M19-MEL melanoma): 32 µM
- TGI (SK-MEL-5 melanoma): 28.3 µM
